## Reported water solubility values for industrial, environmental and drug-like chemicals

Source: data files of OPERA 2.9 (Mansouri et al.), github.com/kmansouri/OPERA.

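The numbers are reported measurements, compiled and curated for the OPERA QSAR suite. One number stands for a compound and property, with no spread given. How each value was measured is not recorded, so precision varies. A value may pool stereoisomers or salt forms, and the file does not say which form was measured. Some entries may be limits or estimates that an upstream database listed as plain numbers.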

Solubility in water is on a log10 molar scale (set defined at 25 °C).
"n/a" marks a cell with nothing listed here.

log S (log10 mol/L),structure (SMILES),name
-4.627,CO[C@H]1C[C@H](O[C@H]2[C@H](C)[C@@H](O[C@@H]3O[C@H](C)C[C@H](N(C)C)[C@H]3OC(C)=O)[C@@H](C)C[C@]3(CO3)C(=O)[C@H](C)[C@@H](OC(C)=O)[C@@H](C)[C@@H](C)OC(=O)[C@@H]2C)O[C@@H](C)[C@@H]1OC(C)=O,Troleandomycin
-2.47,CCCCC[C@H](O)/C=C/[C@H]1[C@H](O)CC(=O)[C@@H]1C/C=C\CCCC(=O)O,Dinoprostone
-2.35,Nc1cccc2cc(S(=O)(=O)O)ccc12,"2-Naphthalenesulfonic acid, 5-amino-"
-0.898,CC1CCCCC1(O)C(=O)O (stereo unspecified),1-Hydroxy-2-methylcyclohexanecarboxylic acid
0.064,CC(C)(N)CO.Cn1c(=O)c2[nH]c(Br)nc2n(C)c1=O,Pamabrom [USAN:USP]
-1.964,O=C1Nc2nc(=O)nc3[nH]c(=O)nc(n23)N1,"1,3,4,6,7,9,9b-Heptaazaphenalene-2,5,8(1H,3H,6H)-trione"
-1.903,O=C1NC(=O)C2C(N1)NC(=O)N2CO (stereo unspecified),"7-(Hydroxymethyl)tetrahydro-1H-purine-2,6,8(3H)-trione"
-1.602,Cc1cc(O)n(CCC(=O)O)c(=O)c1C(N)=O,n/a
-3.709,CCCCCCCCCCOC1CCS(=O)(=O)C1 (stereo unspecified),"Thiophene, 3-(decyloxy)tetrahydro-, 1,1-dioxide"
-1.629,CCCCCC1CCCC(=O)O1 (stereo unspecified),6-Pentyltetrahydro-2H-pyran-2-one
-1.139,CCC(C)NC(N)=S (stereo unspecified),sec-Butyl-thiourea
-4.974,C[C@@H]1CC[C@H]2C(C)(C)[C@H]3C[C@@]12CC[C@@]3(C)O,(+)-Cedrol
-3.425,CCCCNC(=O)NS(=O)(=O)c1ccc(C)cc1,Tolbutamide
-1.429,CN(C)c1ccc(C(=N)c2ccc(N(C)C)cc2)cc1,Auramine
-2.417,CC(=O)Oc1ccc(Br)cc1,"Phenol, 4-bromo-, 1-acetate"
-0.819,CCCCCOC(=O)C(C)OC(C)=O (stereo unspecified),Pentyl 2-acetoxypropanoate
-3.22,I/C=C/I,n/a
-1.683,NC(=O)c1cc(O)ccc1O,Gentisamide
0.571,O=C(O)C[C@H](NC(=O)CP(=O)(O)O)C(=O)O,Sparfosic Acid
-4.102,Cc1nc(C)c2c(n1)N(Cc1ccc(-c3ccccc3-c3nn[nH]n3)cc1)C(=O)CC2,Tasosartan
-1.254,c1ccc(N2CCSCC2)cc1,4-phenylthiomorpholine
-2.658,CC(=O)OCCCc1ccccc1,3-Phenylpropyl acetate
-2.27,CCOC(=O)[C@H](Cc1c[nH]c2ccccc12)N(C)C=O,Ethyl N-formyl-N-methyltryptophanate
-0.796,CC1CC=C(C(=O)O)C(C)O1 (stereo unspecified),"2,6-Dimethyl-5,6-dihydro-2H-pyran-3-carboxylic acid"
-2.824,CCOC(=O)c1ccccc1O,Ethyl salicylate
-7.558,Cc1ccc([N+](=O)[O-])cc1N=Nc1c(O)c(C(=O)Nc2ccccc2)cc2ccccc12,C.I. Pigment Red 22
-2.415,Nc1nc2ncncc2[nH]1,7H-purin-8-amine
-4.376,CCCCCCCCCCCCN1CC(C(=O)OC)CC1=O (stereo unspecified),n/a
-4.379,O[C@H](c1ccccc1)c1ccc(Br)cc1,(4-Bromophenyl)(phenyl)methanol
-1.676,CC(C)OC(=O)OCOP(=O)(COC(C)Cn1cnc2c(N)ncnc21)OCOC(=O)OC(C)C.O=C(O)/C=C/C(=O)O (stereo partly drawn),Tenofovir disoproxil fumarate
-2.86,O=C(O)c1ccc([N+](=O)[O-])cc1,4-Nitrobenzoic acid
-4.43,CCC(c1ccc(O)cc1)C(CC)c1ccc(O)cc1 (stereo unspecified),"4,4'-(Hexane-3,4-diyl)diphenol"
-2.814,O=C(O)c1ccc2c(c1C(=O)O)C(=O)c1ccccc1C2=O,n/a
-3.129,C=CCOc1ccc(CC(=O)O)cc1Cl,Alclofenac
-1.86,Nc1ccc(C(=O)O)c(S(=O)(=O)O)c1,4-Amino-2-sulfobenzoic acid

The last 2 entries again:

| structure (SMILES) | name | log S (log10 mol/L) |
|---|---|---|
| C=CCOc1ccc(CC(=O)O)cc1Cl | Alclofenac | -3.129 |
| Nc1ccc(C(=O)O)c(S(=O)(=O)O)c1 | 4-Amino-2-sulfobenzoic acid | -1.86 |